Source: patent US9073924B2 (dated 2015)

Chains of the proteins cited; added tags and fusions are not shown.
UniProt Q15910, whole entry: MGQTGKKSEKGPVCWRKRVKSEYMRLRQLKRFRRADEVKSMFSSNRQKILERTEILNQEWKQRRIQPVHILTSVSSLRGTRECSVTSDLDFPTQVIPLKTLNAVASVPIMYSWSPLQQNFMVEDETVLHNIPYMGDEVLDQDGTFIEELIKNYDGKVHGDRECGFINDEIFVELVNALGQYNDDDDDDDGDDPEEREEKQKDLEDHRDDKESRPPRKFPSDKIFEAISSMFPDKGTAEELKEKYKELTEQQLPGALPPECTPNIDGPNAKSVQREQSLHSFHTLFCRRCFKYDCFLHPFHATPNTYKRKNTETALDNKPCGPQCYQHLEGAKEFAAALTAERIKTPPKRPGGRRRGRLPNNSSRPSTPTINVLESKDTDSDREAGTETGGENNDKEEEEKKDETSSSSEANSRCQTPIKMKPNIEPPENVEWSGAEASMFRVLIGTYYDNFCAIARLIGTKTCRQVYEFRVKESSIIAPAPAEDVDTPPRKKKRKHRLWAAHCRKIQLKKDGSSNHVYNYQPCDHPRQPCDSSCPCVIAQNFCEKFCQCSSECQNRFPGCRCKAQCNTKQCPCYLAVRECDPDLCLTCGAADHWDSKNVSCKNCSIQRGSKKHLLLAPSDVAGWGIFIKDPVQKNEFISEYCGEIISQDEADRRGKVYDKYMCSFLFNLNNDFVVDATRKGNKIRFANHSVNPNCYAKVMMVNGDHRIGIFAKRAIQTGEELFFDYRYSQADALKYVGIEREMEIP

Target: EZH2 within the PRC2 complex (Homo sapiens, UniProt Q15910)
Assay: EZH2 methyltransferase scintillation proximity assay (SPA), PRC2 complex
Type: biochemical
Settings: inhibition of methyltransferase activity, 3H-SAM, HeLa mononucleosome substrate, foregoing or an analogous assay

Substance: N-[(4,6-Dimethyl-2-oxo-1,2-dihydro-3-pyridinyl)methyl]-1-(1-methylethyl)-6-[6-(4-methyl-1-piperazinyl)-3-pyridinyl]-1H-pyrazolo[3,4-b]pyridine-4-carboxamide [Ex 82]
- IC50: 108 nM
